Test [1] deals with T1, Dopamine beta-hydroxylase (Bos taurus) (UniProt P15101).
T1 sequence (whole entry): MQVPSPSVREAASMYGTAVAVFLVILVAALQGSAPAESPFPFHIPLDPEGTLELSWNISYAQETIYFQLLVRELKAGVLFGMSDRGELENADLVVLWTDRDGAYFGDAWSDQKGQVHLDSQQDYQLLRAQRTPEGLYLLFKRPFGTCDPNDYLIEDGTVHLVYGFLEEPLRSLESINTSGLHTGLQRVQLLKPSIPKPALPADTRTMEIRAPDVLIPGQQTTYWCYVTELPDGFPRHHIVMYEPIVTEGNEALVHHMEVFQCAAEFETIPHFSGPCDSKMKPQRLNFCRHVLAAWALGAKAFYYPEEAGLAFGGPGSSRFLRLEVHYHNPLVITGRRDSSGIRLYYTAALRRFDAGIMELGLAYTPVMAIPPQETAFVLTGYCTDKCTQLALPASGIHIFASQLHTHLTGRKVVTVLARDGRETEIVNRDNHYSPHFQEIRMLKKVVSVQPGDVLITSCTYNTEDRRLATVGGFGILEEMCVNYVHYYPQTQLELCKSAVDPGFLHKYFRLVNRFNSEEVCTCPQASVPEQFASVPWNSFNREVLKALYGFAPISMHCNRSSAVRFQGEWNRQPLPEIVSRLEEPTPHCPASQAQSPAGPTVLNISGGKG
Nature of the test: Inhibitor dissociation constant vs. tyramine substrate against Dopamine beta hydroxylase at pH 6.0. In outline: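 Purified homogeneous DBH, specific activity 25-42 units/mg, assayed at pH 6.0 with tyramine as the varied substrate. Kis taken as slope inhibition constant from Cleland COMP/NONCOMP fits; mean ± SEM.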

Test [2] concerns the target T1, Dopamine beta-hydroxylase (Bos taurus).
Test [3] shares this target. This is another data set of the same source.
For test [4] the target is unchanged. The test is described as follows: Inhibitor dissociation constant vs. tyramine substrate against Dopamine beta hydroxylase at pH 4.5. The essentials:
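Homogeneous purified DBH with specific activity 25-42 units/mg, with tyramine as the varied substrate. The pH 4.5 condition is predominantly ordered: phenethylamine binds before oxygen. The pH 6.6 condition is random. Kis is from standard competitive/noncompetitive kinetic fits, reported as mean ± SEM.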

The target is the same in test [5]. This is another data set of the same source.

Data on seven compounds can be found in ChEMBL document CHEMBL1123691, “Multisubstrate inhibitors of dopamine beta-hydroxylase. 2. Structure-activity relationships at the phenethylamine binding site” (J Med Chem, 1987).

`Fc1ccc(Cn2cc[nH]c2=S)cc1` gave a Kis in test [1] of 0.99 µM. Turning to `S=c1[nH]ccn1Cc1ccc(Cl)cc1`, the Kis in test [2] was determined as 2.74 µM. `COc1ccc(Cn2cc[nH]c2=S)cc1` yielded a Kis in test [1] of 26 µM.

`Oc1ccc(Cn2cc[nH]c2=S)cc1F` returned a Kis in test [3] of 0.045 µM. In test [4], `Oc1c(Cl)cc(Cn2cc[nH]c2=S)cc1Cl` registered a Kis of 0.018 µM. The same measure, in the same setting: the value for `S=c1[nH]ccn1Cc1cc(Cl)cc(Cl)c1` was 0.024 µM. As to `Oc1ccc(Cn2cc[nH]c2=S)cc1`, in test [5], the Kis is 0.088 µM.
